Measurements published in ChEMBL document CHEMBL1955824, “Indeno[1,2-b]indole derivatives as a novel class of potent human protein kinase CK2 inhibitors” (Bioorg Med Chem, 2012).

Protein sequences, listed by entry. Tags and fused reporters are not part of them.
UniProt P68400, whole entry: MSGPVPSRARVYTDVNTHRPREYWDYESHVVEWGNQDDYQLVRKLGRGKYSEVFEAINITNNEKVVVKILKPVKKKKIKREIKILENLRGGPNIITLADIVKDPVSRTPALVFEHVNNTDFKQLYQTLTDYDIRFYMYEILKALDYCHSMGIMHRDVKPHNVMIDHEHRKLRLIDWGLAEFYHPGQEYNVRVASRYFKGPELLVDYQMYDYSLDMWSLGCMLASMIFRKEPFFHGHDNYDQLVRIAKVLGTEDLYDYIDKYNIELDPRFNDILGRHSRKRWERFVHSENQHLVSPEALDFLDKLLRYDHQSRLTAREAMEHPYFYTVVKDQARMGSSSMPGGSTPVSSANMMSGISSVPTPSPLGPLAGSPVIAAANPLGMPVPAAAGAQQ

Target: Casein kinase II alpha/beta (Homo sapiens, UniProt P68400)
Experiment: Inhibition of human CSNK2A1/2B expressed in Escherichia coli BL21(DE3) using RRRDDDSDDD as substrate after 15 mins by scintillation counting

SMILES: Cc1cc(O)c2c(c1)C(=O)c1cc(O)cc(O)c1C2=O [EMODIN]
- IC50: 460 nM
